Test results from PMC3542538 (Journal of medicinal chemistry, 2012).

Amino acid sequences for entries named in this document (tags omitted).
UniProt Q9NUW8, whole entry: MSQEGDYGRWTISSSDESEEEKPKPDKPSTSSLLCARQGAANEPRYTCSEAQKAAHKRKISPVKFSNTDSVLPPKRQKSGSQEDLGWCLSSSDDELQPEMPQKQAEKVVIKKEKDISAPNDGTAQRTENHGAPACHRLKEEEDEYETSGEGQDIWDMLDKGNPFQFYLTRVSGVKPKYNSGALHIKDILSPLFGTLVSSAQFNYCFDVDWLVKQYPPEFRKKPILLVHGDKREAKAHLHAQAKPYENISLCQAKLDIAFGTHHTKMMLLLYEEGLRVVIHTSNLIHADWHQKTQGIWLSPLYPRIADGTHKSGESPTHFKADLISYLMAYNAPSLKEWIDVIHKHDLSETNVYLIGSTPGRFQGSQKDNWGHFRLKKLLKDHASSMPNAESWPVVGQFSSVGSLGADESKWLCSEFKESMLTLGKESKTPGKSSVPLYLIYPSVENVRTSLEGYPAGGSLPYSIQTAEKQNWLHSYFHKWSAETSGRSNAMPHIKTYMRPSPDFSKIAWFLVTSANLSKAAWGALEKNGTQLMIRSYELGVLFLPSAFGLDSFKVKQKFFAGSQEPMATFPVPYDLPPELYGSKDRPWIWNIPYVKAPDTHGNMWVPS

Tests used:
Tdp1 [1] = target: T1, Tdp1 (Homo sapiens, UniProt Q9NUW8); conditions: SPR, 1:1 binding model
Tdp1 [2] = target: T1, Tdp1; type: biochemical

SMILES | kd (Tdp1 [1]) | Tdp1 inhibitory activity (in words) (Tdp1 [2])
Cn1c2c(c3ccc(NC(=O)C(=O)O)cc3c1=O)C(=O)c1ccccc1-2 [Compound 14] | 0.24 s⁻¹ | 
CC(=O)Nc1ccc2c3c(n(CCCN)c(=O)c2c1)-c1ccccc1C3O (centres unmarked) [Compound 61] |  | not active; also recorded: abolished the activity

Entries after “also recorded” stand apart in the source; their conditions may differ.
